By UniProt entry, the sequences of proteins in these tests, tags left out. Residues count along the entry.
UniProt P05067, 672-713 limits assumed: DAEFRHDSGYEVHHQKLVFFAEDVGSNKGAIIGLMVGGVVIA

In article PMC11258689, “A Snake Venom Peptide and Its Derivatives Prevent Aβ42 Aggregation and Eliminate Toxic Aβ42 Aggregates In Vitro” (ACS Chemical Neuroscience, 2024):

What was measured:
Aβ42 = target: T1, Aβ42 (Homo sapiens, UniProt P05067); test: Thioflavin T (ThT) assay of Aβ42 aggregation; assay type: biochemical; details: 28 μM peptide, 10 μM Aβ42, 5 μM ThT, 24 h, room temperature; mean of n = 3
T1 construct: purchased Bachem, Bubendorf, Switzerland
Procedure: To evaluate the ability of the peptides to prevent Aβ42 aggregation, a ThT assay was performed. Aβ42 (10 μM), ThT (5 μM), and the peptides (28 μM) were incubated in 96-well plates for 24 h at room temperature in a plate reader (Clariostar, BMG Labtech, Ortenberg, Germany). During this time, the ThT fluorescence was measured every 6 minutes with an excitation of 440 nm and emission of 490 nm. The data were corrected considering the blank wells (without Aβ42 and the peptides). None of the peptides interact with ThT alone or has autofluorescence properties. All measurements were performed in triplicate (n = 3), and data are presented as mean ± SM.
Different concentrations were titrated to investigate CDP-1 and -2 dose dependency on the Aβ42 aggregate formation, and a ThT assay was performed as described before. The effect of 0, 0.5, 1, 3, 6, 13, and 28 μM peptides was tested against 10 μM Aβ42 over 24 h. All experiments were performed in triplicate (n = 3), and data are presented as mean ± SM.

Aβ42 oligomers = test: QIAD assay (Aβ42 aggregate size distribution, oligomer elimination); assay type: biochemical; details: 20 μM peptide added to 80 μM Aβ42 (pre-incubated 2 h), 30 min; density gradient, RP-HPLC UV 214 nm; n = 3
Procedure: In order to evaluate the efficacy of the peptides in eliminating Aβ42 oligomers, QIAD assays were performed.[39] Briefly, lyophilized Aβ42 (80 μM) was incubated for 2 h in sodium phosphate buffer for Aβ42 oligomerization. Then, each peptide (20 μM) was added to the Aβ42 solution and incubated for 30 min. Finally, samples were added on top of an iodixanol density gradient (5–50% (w/v) (OptiPrep, Sigma-Aldrich, Darmstadt, Germany) and centrifuged for 3 h at 4 °C and 259,000 x g (Optima TL-100, Beckman Coulter, Brea, CA, USA). For the sample analysis, 14 fractions (140 μL each) were collected from top to bottom. The top fractions, named fractions 1–2, contained Aβ42-monomers; fractions 4–6 contained the Aβ42-oligomers, which are of special interest; and the bottom fractions 11–14 contained high molecular weight of aggregated Aβ42. Each density gradient fraction was analyzed by Reversed Phase Liquid Chromatography. For this an Agilent 1260 Infinity II (Santa Clara, California, USA) system was equipped with an Agilent Zorbax SB-300 C-8 5 μm, 4.6 × 250 mm Column (Santa Clara, California, USA) and a multi-wavelength detector set to acquire the UV absorbance at 214 nm. H2O + 0.1% trifluoroacetic acid (AppliChem, Darmstadt, Germany) and acetonitrile (Roth, Karlsruhe, Germany) + 0.1% trifluoroacetic acid were used as eluent A and B, respectively. The acquisition method consisted of an initial isocratic step at 15% B, followed by a gradient from 15% B to 45% B in 10 min and another isocratic step at 45% B. The column temperature was set to 80 °C for the entire analysis. This method ensured full separation of the iodixanol density gradient medium and Aβ42 in all fractions. Aβ42 peaks were analyzed and integrated by the Agilent OpenLab 2.5 software. All measurements were performed in triplicate (n = 3), and data are presented as mean ± SM.

Aβ42 aggregates = test: sFIDA assay of Aβ42 aggregate elimination; assay type: biochemical; details: 50 nM peptide, 1 nM Aβ42 aggregates, overnight, room temperature, PBS; TIRFM pixel count; n = 3
Procedure: To determine the influence of peptides on Aβ42 aggregates, an sFIDA assay was performed. The principle was previously described.[29] Therefore, we used pretreated 384 glass bottom microtiterplates (Sensoplate plus, Greiner Bio-One GmbH, Frickenhausen, Germany) to immobilize the capture-antibody Nab228 (Sigma-Aldrich, St. Louis, Missouri, USA) in a concentration of 2.5 μg/mL in 0.1 M carbonate buffer (Carl Roth, Karlsruhe, Germany). After an overnight incubation at 4 °C, the plate was washed five times with TBS and blocked with 80 μL of a 0.5% BSA solution in TBS with 0.03% ProClin 300 (Sigma-Aldrich, St. Louis, Mo, USA) for 1.5 h at room temperature.
The influence of 50 nM CDPs on 1 nM Aβ42 aggregates (prepared according to Ref ([70])) in PBS was determined by incubating them overnight at room temperature and 600 rpm. As a control, the same Aβ42 aggregates concentration was incubated without additions of peptides; instead, the buffer was added to contain the same end concentrations. […]
By using a total internal reflection microscopy (TIRFM) (Leica Camera AG, Wetzlar, Germany), measurement (excitation: 635 nm, emission filter: 705/22 nm) was carried out with an oil immersion objective in 100× magnifications as previously described by Kass et al. 2022, and for each well, 25 of 14-bit grayscale images were measured with a size of 1000 × 1000 pixel each. […]

SH-SY5Y cells = test: MTT cell viability assay, SH-SY5Y; assay type: cell-based, human; details: 20 and 40 μM peptide, overnight, n = 3
Procedure: (§1) The cell viability assay was performed using the reduction of [3-(4,5-dimethylthiazol-2-yl)-2,5-diphenyl tetrazolium bromide-MTT] (Merck, Darmstadt, Germany) to investigate the cytotoxicity of the CDPs against SH-SY5Y (human neuroblastoma) and HEK293 (human embryonic kidney) cells. Both cell lines were purchased from the Leibniz Institute DSMZ-German collection of microorganisms and cell cultures GmbH. HEK293 cells were cultivated in Dulbecco’s modified Eagle’s medium high glucose (Merck, Darmstadt, Germany) containing 2% antibiotic solution of 10 000 units Penicillin, 10 mg streptomycin/ml (Merck, Darmstadt, Germany), and 10% fetal bovine serum (Merck, Darmstadt, Germany) at 37 °C with 5% CO2. […]
(§2) According to the manufacturer’s instructions, cell viability was measured using the Cell Proliferation Kit I (Roche, Basel, Switzerland). The absorbance of the formazan product was determined by measuring the absorption at 570 nm and subtracted from the absorbance at 660 nm.
(§3) The SH-SY5Y cells with a density of 10 000 cells (for HEK293 5000 cells) per well (total volume of 100 μL) were added to each well of a 96-well tissue culture plate (VWR North American) and incubated overnight at 37 °C with 5% CO2. […] Finally, the absorbance was measured at 570 and 660 nm using a CLARIO star plate reader (BMG labtech, Ortenberg, Germany), and the cell viability was calculated using eq 2: [drawing 2] […]

HEK293 cells = test: MTT cell viability assay, HEK293; assay type: cell-based, human; details: 20 and 40 μM peptide, overnight, n = 3
Procedure: as §1, §2, §3

Structure (SMILES)	ThT signal / Aβ42 aggregation compared to Aβ42 alone (Aβ42)	Aβ42 in QIAD fraction 6 (oligomers) (Aβ42 oligomers)	Aβ42 in QIAD fractions 4–5 (oligomers) (Aβ42 oligomers)	sFIDA signal reduction compared with the control (Aβ42 aggregates) [%]	cytotoxicity in SH-SY5Y cells (SH-SY5Y cells)	cytotoxicity in HEK293 cells (HEK293 cells)
COC(=O)[C@H](CCCCN)NC(=O)[C@H](CCCCN)NC(=O)[C@H](CO)NC(=O)[C@H](CS)NC(=O)[C@H](CCCCN)NC(=O)[C@H](Cc1c[nH]c2ccccc12)NC(=O)[C@H](CCCNC(=N)N)NC(=O)[C@H](Cc1c[nH]c2ccccc12)NC(=O)[C@H](CCCNC(=N)N)NC(=O)[C@H](CO)NC(=O)[C@H](CC(=O)O)NC(=O)[C@H](CCSC)NC(=O)[C@H](CCCCN)NC(C)=O [CDP-6]	four times smaller	detectable	not detected	91.2		
COC(=O)[C@H](CCCCN)NC(=O)[C@H](CCCCN)NC(=O)[C@H](CO)NC(=O)[C@H](CS)NC(=O)[C@H](CCCCN)NC(=O)[C@H](Cc1c[nH]c2ccccc12)NC(=O)[C@H](CCCNC(=N)N)NC(=O)[C@H](Cc1c[nH]c2ccccc12)NC(=O)[C@H](CCCNC(=N)N)NC(=O)[C@H](CS)NC(=O)[C@H](CC(=O)O)NC(=O)[C@H](CCSC)NC(=O)[C@H](CCCCN)NC(C)=O [CDP-8]	four times smaller		not detected	77.2	nontoxic	nontoxic
